Test results as given in patent US5637318A, “Dermatological agent for assisting the transport of oxygen in the skin” (Lancaster Group AG, priority 1992, dated 1997).

Tested on: skin tissue
Details: in vivo

For `FC(F)(F)C(F)(F)C(F)(F)C(F)(F)C(F)(F)C(F)(F)F` [F-hexane], which “residence time in the tissue / release from the tissue” value is on record?
The value was “released correspondingly more rapidly from the tissue”.
